Measurements from US7425537B2, “SH2 domain binding inhibitors” (The United States of America as represented by the …, priority 2000, dated 2008).

Sequences of proteins named here, by UniProt entry; tags and fusion partners are left off. Residues count along the entry.
UniProt P62993, 60-152 limits assumed: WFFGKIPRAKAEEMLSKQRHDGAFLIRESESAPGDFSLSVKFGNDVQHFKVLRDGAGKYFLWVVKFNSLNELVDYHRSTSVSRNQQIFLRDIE

Target: Grb2 SH2 domain (recombinant Grb2 SH2-GST fusion protein; SHC-derived phosphopeptide) (Homo sapiens, UniProt P62993)

| pIC50 (read-out: IC50, Grb2 SH2 domain protein, ELISA (FIG. 11), FIG. 11, n=3) | pIC50 (read-out: IC50, extracellular ELISA GrB2 SH2 domain binding assay (FIG. 24), FIG. 24, no unit printed in legend) | pIC50 (read-out: IC50, extracellular ELISA assay of Grb2 SH2 domain binding inhibitors (FIG. 17), FIG. 17) | Structure (SMILES) |
| --- | --- | --- | --- |
| 5.70 | – | – | NC(=O)C[C@H](NC(=O)C1(NC(=O)CCc2ccc(CP(=O)(O)O)cc2)CCCCC1)C(=O)NCCCc1cccc2ccccc12 |
| – | 8.52 | 8.00 | NC(=O)C[C@H](NC(=O)C1(NC(=O)[C@H](Cc2ccc(CP(=O)(O)O)cc2)NC(=O)C(=O)O)CCCCC1)C(=O)NCCCc1cccc2ccccc12 |

pIC50: −log10 of the molar value. Read-outs that look alike come from different tables or passages of the source.
